Experimental data: PMC4900556, “Connexin43 Forms Supramolecular Complexes through Non-Overlapping Binding Sites for Drebrin, Tubulin, and ZO-1” (PLoS ONE, 2016)

Target: F-actin (rabbit skeletal muscle actin) (rabbit), P68135
Test: co-IP; anti-actin antibody on protein A agarose beads captures purified F-actin as bait; one GST-tagged prey added; 1% BSA in 1X PBS, overnight; Western blot with rabbit anti-GST; control without bait
Settings: remark: other sources report otherwise

- fold of band density with F-actin over beads without F-actin: 2.5 fold
B1: Drebrin A 1–300 (Drb^1-300), untagged (domain or fragment, UniProt Q9QXS6 1-300, looked up)
chain: MAGVSFSGHRLELLAAYEEVIREESAADWALYTYEDGSDDLKLAASGEGGLQELSGHFENQKVMYGFCSVKDSQAALPKYVLINWVGEDVPDARKCACASHVAKVAEFFQGVDVIVNASSVEDIDAGAIGQRLSNGLARLSSPVLHRLRLREDENAEPVGTTYQKTDAAVEMKRINREQFWEQAKKEEELRKEEERKKALDARLRFEQERMEQERQEQEERERRYREREQQIEEHRRKQQSLEAEEAKRRLKEQSIFGDQRDEEEESQMKKSESEVEEAAAIIAQRPDNPREFFRQQERV
notes: Drebrin A residues 1-300; also called drebrin amino acids 1–300; N-terminal fragment of drebrin; source: E. coli Rosetta cells, purified on glutathione-agarose column, GST tag digested and captured with a Thrombin kit
